Reference: patent publication US9060928B2, “Tacrolimus injection preparation” (FUZHOU HARVESTER PHARMACEUTICAL R&D CO., LTD., priority 2009, dated 2015)
Where two headings read alike, the source gives them in different places.

Test system: 2% red blood cell suspension
Design: Hemolysis test result: key to the marks not given beside the values
Details: for Hemolysis test result: test tube 7 (+), 2.5 ml distilled water

Substance: Distilled water
- Hemolysis test result (incubated at 37° C. for 15 min): +++
- Hemolysis test result (incubated at 37° C. for 30 min): +++
- Hemolysis test result (incubated at 37° C. for 45 min): +++
- Hemolysis test result (incubated at 37° C. for 1.0 hr): +++
- Hemolysis test result (incubated at 37° C. for 2.0 hrs): +++
- Hemolysis test result (incubated at 37° C. for 3.0 hrs): +++
- Hemolysis test result (incubated at 37° C. for 4.0 hrs): +++
- Hemolysis on addition of distilled water (in words) (test tube No. 7): Hemolysis occurs immediately
